{
  "source": "patent US20240116986A1",
  "about": "“FUSION PEPTIDES CONTAINING DIMERIC ALPHA-HELICES, PEPTIDE-MOLECULARCONJUGATES CONTAINING THE SAME AND NUCLEIC ACID DELIVERY COMPOSITIONSCONTAINING THE SAME” (Artprobio Co., Ltd., priority 2022, published 2024)",
  "settings": "nanostructure, charge ratio (+/−) 0.25, 20° C.",
  "data": [
    {"substance": "Glucose-GS-AELAALEAELAALE-(Ahx)2-K-(Ahx)2-KLAALKAKLAALKAG-K(^Nglucose)-NH2 [SAB-g3]", "values": [
      {"measurement": "helicity after binding to the EGFP mRNA", "result": 0.935}
    ]}
  ]
}
